Ab-14 light chain CDR variants: yeast mating affinities

The measurements come from Li et al. 2023 (doi:10.1038/s41467-023-39022-2) through the FLAb antibody collection.

Target: peptide PDVDLGDISGINAS, taken from heptad repeat 2 (HR2) of SARS-CoV-2 spike.

Each scFv is VH, a 15-residue (Gly4Ser)3 linker, VL, as in the parent Ab-14, and differs from it in the CDRs of the light chain only.
VH: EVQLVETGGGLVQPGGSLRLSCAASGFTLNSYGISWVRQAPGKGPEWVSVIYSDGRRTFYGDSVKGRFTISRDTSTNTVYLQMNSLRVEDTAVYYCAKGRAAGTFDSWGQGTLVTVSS
VL: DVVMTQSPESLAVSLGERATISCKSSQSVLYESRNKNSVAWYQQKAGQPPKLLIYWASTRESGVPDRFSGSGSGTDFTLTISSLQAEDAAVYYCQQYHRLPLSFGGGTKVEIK

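The parent was found by panning a naive human phage display library on the peptide. This is the validation round: designs drawn from the data on random variants, tested in the same kind of assay. Several design methods are mixed in this list. The scFvs were displayed on barcoded MATa yeast, the peptide on MATalpha yeast. Mating (16 h, 30 °C) was followed by selection of diploids and sequencing of their barcodes. Each replicate has its own calibration line, from reference interactions of the BCL2 family. There are six technical replicates.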

Each variant is given by its three light chain CDRs, as the data file delimits them; those of the parent are KSSQSVLYESRNKNSVA, WASTRES, QQYHRLPLS. Affinities are written as log10 Kd with Kd in nM; a lower number is a better binder. A pair that was not seen in that replicate is written "n.d."; this usually means weak binding, but a binder can also be missed. Values of this round are not directly comparable with the first-round values of the same sequences. Background: pairings of all light chain designs with three empty control strains gave a value in 4% of cases (median 2.64, 5th percentile 1.59). Values in that range, when seen in few replicates, are hard to tell from nonspecific mating. Of ten entries with the parent sequence, four were seen in most replicates (averages 0.34 to 2.37), three in one and three in none, so single entries are noisy. The authors' rule: three or more of the six replicates give a measured affinity, fewer mean a poor binder.

| replicates, log10 nM | CDR-L1 | CDR-L2 | CDR-L3 |
|---|---|---|---|
| n.d. n.d. n.d. n.d. 2.51 n.d. | MLSQMWGLGQKVKNSVA | QASTRFN | QQYERLPLI |
| 0.30 0.42 -0.01 0.52 0.46 0.42 | KLSMITGHMSMSKNNVA | EMVTRMK | QQYNRLPLS |
| n.d. n.d. n.d. n.d. n.d. n.d. | KSSQSMLYESRNKNSVA | WASTRLS | DQYHRLPLS |
| 0.80 0.35 0.34 0.44 0.39 0.66 | MMSQVTGSGTRHRNNVA | QTSMREP | QQYDRLPLI |
| -0.01 -0.01 -0.22 -0.09 0.01 0.33 | KLQNFSQEDNKMWNNVA | DMTMKHT | QQYNRLPLE |
| -0.16 -0.28 -0.53 -0.73 -0.67 -0.11 | KLSQSVLYESRNKNSVA | DASTREM | QQYHRLPLS |
| 0.96 0.56 1.35 0.46 0.38 0.38 | TISQMTSLFSQSINNVA | EVSMREP | QQYDRLPLM |
| 1.88 n.d. 1.27 2.58 2.13 0.95 | KSSQSVLYSSRNKNSVA | WGSTRDS | QQYSRLPLS |
| -0.02 -0.28 -0.23 -0.39 -0.40 -0.09 | KLEQSIWYESRNKNSVA | NASTRES | QQYHRLPLS |
| 1.11 0.72 0.78 1.20 1.42 1.04 | KITATMRFEQKIKNNIA | EVTTRSK | QQYYRLPLS |
| 0.26 0.48 0.25 0.05 0.53 0.64 | SISGFMKTLSSHKNNVA | DMTNRED | QQYDRLPLS |
| 2.07 1.74 2.72 1.89 3.06 3.27 | KLSQSQEYESRNKNSVA | NASTRET | QQYHRLPLE |
| 0.21 -0.05 -0.17 -0.20 0.05 0.17 | KLSQSVGYESRNKNSVA | DASQRES | QQYHRLPLS |
| 0.28 0.21 0.09 0.06 0.30 0.28 | KVSFSDLLESRNKNSVA | EASTRES | QQYHRLPLS |
| 0.19 0.12 0.26 -0.42 0.38 0.71 | ILSQMLLTAGNKHSSVA | QANNREQ | QQYHRLPLS |
| n.d. n.d. n.d. n.d. n.d. n.d. | KSSQSELYESRNKNSVA | WASTREA | QQYKRLPLS |
| 1.03 1.61 0.77 1.77 1.57 1.38 | KLSQSVGYESRNKNSVA | WASTRER | QQYHRLPLS |
| 2.20 1.50 1.55 1.66 1.88 2.81 | HMSMLTLQGMRHRNSVA | QMTTREK | QQYDHLPLS |
| 0.75 0.34 0.31 0.39 0.55 0.93 | KISQMVRVGSTVSNSIA | EEVTRAK | QQYHRLPLS |
| 0.45 0.50 0.44 0.13 0.57 0.50 | MMSQVTGLGQRQRNNVA | QTSTREE | QQYDRLPLI |
| n.d. n.d. n.d. n.d. n.d. n.d. | IVSQLMLWGLHAKNSIA | EASARLN | QQYDRLPLF |
| -0.13 -0.18 -0.21 -0.13 -0.14 -0.05 | KSSPSYLYESRNKNSVA | EASTREQ | QQYHRLPLS |
| 1.32 2.08 1.58 0.83 1.18 1.56 | KMSQSELYEERNSNAVA | QASQRMS | QQYHRLPLS |
| -0.07 -0.26 -0.39 -0.33 -0.39 -0.07 | KVMQSKEYESRQKNSVA | NASTREL | QQYHRLPLS |
| 0.83 0.66 1.44 0.85 0.86 0.79 | KLSQSELYESRMKNSVA | NASKRES | QQYHRLPLS |
| 0.40 0.11 -0.08 -0.14 -0.04 0.29 | KLSQSVLYDSQNKNSVA | WASTRES | QQYHRLPLS |
| 0.61 0.32 0.14 0.14 0.09 0.13 | KWSILDLGGDRNKNSVA | HASLREQ | QQYHRLPLS |
| 0.14 -0.12 -0.08 -0.32 -0.20 0.04 | HSSQSVPYESRNKNSVA | NASTREE | QQYHRLPLS |
| 2.37 1.55 1.74 1.06 1.34 1.56 | KCSLSQEYESRQKNSVA | NASTRCS | QQYHRLPLS |
| 0.52 0.34 0.18 0.50 0.26 0.47 | KLMQSWLGQSWNKNSVA | NASQREH | QQYHRLPLS |
| 0.81 0.31 0.21 0.23 0.29 0.65 | KQQSSVMMGSRNKNSVA | SASKREE | QQYHRLPLS |
| 1.25 1.57 1.11 0.65 1.12 0.69 | MMSQVTGSGSRHRNNVA | QTSMREI | QQYDRLPLI |

The 4 strongest on average among those seen in every replicate, once more:

| CDR-L1 | CDR-L2 | CDR-L3 | replicates, log10 nM |
|---|---|---|---|
| KLSQSVLYESRNKNSVA | DASTREM | QQYHRLPLS | -0.16 -0.28 -0.53 -0.73 -0.67 -0.11 |
| KVMQSKEYESRQKNSVA | NASTREL | QQYHRLPLS | -0.07 -0.26 -0.39 -0.33 -0.39 -0.07 |
| KLEQSIWYESRNKNSVA | NASTRES | QQYHRLPLS | -0.02 -0.28 -0.23 -0.39 -0.40 -0.09 |
| KSSPSYLYESRNKNSVA | EASTREQ | QQYHRLPLS | -0.13 -0.18 -0.21 -0.13 -0.14 -0.05 |